Measurements taken from US10144746B2 (GLOBAL BLOOD THERAPEUTICS, INC., priority 2015, dated 2018).

The chains behind the UniProt entries cited, without tags or fusion partners. Residues count along the entry.
UniProt P03952, 20-390 partner: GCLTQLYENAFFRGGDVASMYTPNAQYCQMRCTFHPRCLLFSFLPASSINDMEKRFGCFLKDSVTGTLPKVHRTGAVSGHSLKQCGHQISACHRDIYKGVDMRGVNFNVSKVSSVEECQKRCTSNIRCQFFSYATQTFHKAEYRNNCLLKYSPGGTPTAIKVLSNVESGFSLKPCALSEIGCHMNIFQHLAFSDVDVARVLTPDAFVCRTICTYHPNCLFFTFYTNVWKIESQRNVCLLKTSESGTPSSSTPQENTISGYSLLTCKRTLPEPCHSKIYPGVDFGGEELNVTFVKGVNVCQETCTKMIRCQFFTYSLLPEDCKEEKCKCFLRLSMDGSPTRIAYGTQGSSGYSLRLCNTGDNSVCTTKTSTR
UniProt P03952, 391-638: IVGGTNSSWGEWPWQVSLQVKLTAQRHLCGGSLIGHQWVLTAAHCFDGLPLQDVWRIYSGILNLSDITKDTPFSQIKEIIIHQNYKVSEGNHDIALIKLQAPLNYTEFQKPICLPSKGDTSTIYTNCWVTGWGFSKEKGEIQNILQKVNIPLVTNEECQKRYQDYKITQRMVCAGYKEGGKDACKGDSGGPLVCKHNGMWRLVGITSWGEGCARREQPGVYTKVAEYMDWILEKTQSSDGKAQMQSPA

Biological target: Human plasma kallikrein (Homo sapiens (Human), UniProt P03952)
Assay: In vitro plasma kallikrein inhibition assay (chromogenic substrate D-Pro-Phe-Arg-pNa, absorbance at 405 nm, IC50 determination)
Type: biochemical
Experimental: In Vitro Plasma Kallikrein Inhibition Assay
The chromogenic substrate D-Pro-Phe-Arg-pNa, 2HCl (BIOPHEN CS-31(02) from Hyphen BioMed, Neuville-Sur-oise, France) was dissolved in 5 mL deionized water and stored at 4° C. […] All other chemicals were of analytical grade.
A stock solution of 7 μM in 50% glycerol was stored at −20° C.
Enzyme reactions were conducted in “assay buffer” comprised of 20 mM HEPES at pH 7.4, 150 mM NaCl, 0.1% PEG-8000 and 0.01% Triton X-100.
Both enzyme and substrate were diluted in assay buffer.
Plate measurements were conducted using a SPECTROStar Nano reader (BMG Labtech, San Francisco, Calif., USA). […] We used discrete wavelength, precise, kinetic reads of 15 cycles with a 60 sec cycle time.
Determination of IC50 values
The test compound was dissolved in 100% DMSO. The compounds were serially diluted in DMSO in a 7 point dose response. For the assays, 66.5 μL of protease solution (protease in assay buffer) was added per well followed by the addition of 8.5 μL of compound in 100% DMSO. […] After 30 min. incubation at room temperature on an orbital shaker, the reactions were started by the addition of 10 μL substrate solution (in assay buffer, final assay concentration was 600 uM). After the addition of the substrate solution the final DMSO concentration was 10%. The plate was placed again on the shaker for 5 sec, spun at 2000 rpm for 5 sec and read on the spectrophotometer. […] The IC50 value was calculated from the plot of rate vs. inhibitor concentration by a 4 parameter logistic equation: y=A+((B−A)/([…]))
where y is the rate at the inhibitor concentration, x. A is the minimum y value at the highest inhibitor concentration and B is the y value in the absence of inhibitor, C is the IC50 value and D is the slope factor. The curve fitting was conducted with the non-linear regression routine of the analysis software XLfit (IDBS, version 5.3.1).

Substance	KLKB1 pIC50
(1R,8S)-N-[(4-carbamimidoyl-2,6-difluorophenyl)methyl]-12-cyclopropyl-15-oxatetracyclo[6.6.1.0^2,7.0^9,14]pentadeca-2,4,6,9,11,13-hexaene-4-carboxamide [Example 24]	5.99
(1R,8S)-N-[(4-carbamimidoylphenyl)methyl]-12-(2-fluorophenyl)-15-oxatetracyclo-[6.6.1.0^2,7.0^9,14]pentadeca-2,4,6,9,11,13-hexaene-4-carboxamide [Example 44]	6.75
(±)-methyl 4-{[(6-amino-2,4- dimethylpyridin-3- yl)methyl]carbamoyl}-12- (2,4-difluorophenyl)-15- azatetracyclo[6.6.1.0^2,^7.0^9,1^4] pentadeca-2,4,6,9,11,13- hexaene-15-carboxylate (±)-methyl 4-{[(6-amino-2,4- dimethylpyridin-3-yl)methyl] carbamoyl}-11-(2,4- difluorophenyl)-15-azatetracyclo [6.6.1.0^2,^7.0^9,1^4] pentadeca-2,4,6,9,11,13-hexaene- 15-carboxylate [Example 210]	4.87
